From patent US11358947B2, “Substituted 2-acylamino-cycloalkylthiophene-3-carboxylic acid arylamides as inhibitors of calcium-activated chloride channel TMEM16A” (THE REGENTS OF THE UNIVERSITY OF CALIFORNIA, priority 2017, dated 2022)

Columns and labels:
[1] = test system: non-TMEM16A Ca2+-activated Cl- channel in HT-29 cells; experiment: Non-TMEM16A CaCC plate reader assay in HT-29 cells expressing YFP; assay type: cell-based; details: Homo sapiens, non-TMEM16 anion conductance, fluorescence plate reader assay
Protocol: (§1) Concentration-dependent inhibition of TMEM16A measured by short-circuit current assay; TMEM16B and non-TMEM16 anion conductance measured using a fluorescence plate reader assay using FRT and HT-29 cells respectively; cell viability measured in FRT null cells.
(§2) We further assayed the compound potency on endogenous non-TMEM16A. Ca^2+-activated Cl^− channel in HT-29 cells.
Plate reader assays of chloride channel function, CFTR inhibition was assayed as described. […] Activity of non-TMEM16A CaCC was assayed as described in HT-29 cells expressing YFP.

[2] = target: T1, TMEM16B (Homo sapiens, UniProt Q9NQ90); experiment: TMEM16B fluorescence plate reader assay in FRT cells; assay type: cell-based
T1 construct: expressed in transfected cells; host or cells: Fischer Rat Thyroid (FRT) cells co-expressing YFP
T1 sequence (Q9NQ90 1-998): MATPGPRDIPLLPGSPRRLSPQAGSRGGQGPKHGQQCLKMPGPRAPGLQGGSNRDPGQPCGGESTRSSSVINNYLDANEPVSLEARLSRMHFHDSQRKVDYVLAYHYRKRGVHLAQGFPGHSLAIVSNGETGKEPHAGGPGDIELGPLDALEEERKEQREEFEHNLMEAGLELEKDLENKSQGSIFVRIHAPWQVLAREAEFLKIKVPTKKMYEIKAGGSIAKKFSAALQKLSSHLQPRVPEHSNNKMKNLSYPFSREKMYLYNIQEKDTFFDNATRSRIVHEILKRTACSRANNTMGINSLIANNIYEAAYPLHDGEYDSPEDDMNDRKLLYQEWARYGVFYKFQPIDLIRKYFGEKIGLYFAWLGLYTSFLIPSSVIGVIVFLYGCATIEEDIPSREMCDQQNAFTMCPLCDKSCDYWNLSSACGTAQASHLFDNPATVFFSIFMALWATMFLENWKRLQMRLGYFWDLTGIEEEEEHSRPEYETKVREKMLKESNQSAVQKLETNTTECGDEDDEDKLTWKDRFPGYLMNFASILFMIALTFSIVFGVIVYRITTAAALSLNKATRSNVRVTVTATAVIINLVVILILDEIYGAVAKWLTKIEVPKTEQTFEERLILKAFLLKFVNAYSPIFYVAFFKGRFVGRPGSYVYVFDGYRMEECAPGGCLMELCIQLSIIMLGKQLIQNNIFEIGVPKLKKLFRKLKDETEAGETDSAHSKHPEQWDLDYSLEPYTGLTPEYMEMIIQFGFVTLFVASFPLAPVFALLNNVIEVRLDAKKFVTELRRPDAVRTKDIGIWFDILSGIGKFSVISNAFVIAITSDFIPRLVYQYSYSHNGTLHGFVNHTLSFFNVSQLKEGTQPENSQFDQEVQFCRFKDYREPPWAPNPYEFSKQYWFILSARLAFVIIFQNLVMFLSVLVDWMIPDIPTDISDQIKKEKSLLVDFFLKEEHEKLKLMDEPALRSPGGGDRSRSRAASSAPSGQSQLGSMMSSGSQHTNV
Protocol: as §1, §2
TMEM16A functional assay. TMEM16A functional plate-reader assay was done as previously described. […] Test compounds (0.5 μl in DMSO) were added to each well at specified concentration. […] The initial rate of I− influx following each of the solution additions was computed from fluorescence data by nonlinear regression. TMEM16B activity was assayed similarly as described using FRT cells co-expressing YFP and TMEM16B.

Structure (SMILES) | IC50 [1] [µM] | IC50 [2] [µM]
Cc1ccccc1NC(=O)c1c(NC(=O)C(F)(F)Cl)sc2c1CCCCC2 [Compound 6bk, 2-(2-Chloro-2,2-difluoro-acetylamino)-5,6,7,8-tetrahydro-4H-cyclohepta[b]thiophene-3-carboxylic acid o-tolylamide] | 9.5 | 
Cc1ccccc1NC(=O)c1c(NC(=O)C(F)(F)Br)sc2c1CCCCC2 [Compound 6bm, 2-(2-Bromo-2,2-difluoro-acetylamino)-5,6,7,8-tetrahydro-4H-cyclohepta[b]thiophene-3-carboxylic acid o-tolylamide] | 5.4 | ~0.4
Cc1ccccc1NC(=O)c1c(NC(=O)C(F)(F)I)sc2c1CCCCC2 [Compound 6bn, 2-(2,2-Difluoro-2-iodo-acetylamino)-5,6,7,8-tetrahydro-4H-cyclohepta[b]thiophene-3-carboxylic acid o-tolylamide] | 3.5 | 
